From paper PMC5792450, “PRRT2 Regulates Synaptic Fusion by Directly Modulating SNARE Complex Assembly” (Cell Reports, 2018) come the findings set out here.

Assay [1] concerns the target t-SNARE (syntaxin1a/SNAP25) (UniProt P32851 1-288; P60879 1-206). Put plainly: cell-based or functional assay.
Assay [2] deals with assembled SNARE complex (VAMP2/syntaxin1a/SNAP25) (UniProt P63044 1-116; P32851 1-288; P60879 1-206). Put plainly: MST; t-SNARE or assembled SNARE complex titrated in solution, up to ∼150 μM t-SNARE and ∼60 μM SNARE complex; binding not saturated; soluble conditions; Syt1 tested likewise. The settings on record: both partners purified.

In general, Kd refers to the concentration at which binding is half-saturated.

B1: proline-rich transmembrane protein 2 (PRRT2), full-length, wild type (natural protein, human, UniProt Q7Z6L0 1-340, looked up)
chain: MAASSSEISEMKGVEESPKVPGEGPGHSEAETGPPQVLAGVPDQPEAPQPGPNTTAAPVDSGPKAGLAPETTETPAGASETAQATDLSLSPGGESKANCSPEDPCQETVSKPEVSKEATADQGSRLESAAPPEPAPEPAPQPDPRPDSQPTPKPALQPELPTQEDPTPEILSESVGEKQENGAVVPLQAGDGEEGPAPEPHSPPSKKSPPANGAPPRVLQQLVEEDRMRRAHSGHPGSPRGSLSRHPSSQLAGPGVEGGEGTQKPRDYIILAILSCFCPMWPVNIVAFAYAVMSRNSLQQGDVDGAQRLGRVAKLLSIVALVGGVLIIIASCVINLGVYK
notes: PRRT2, human, full length, cloned into pGEX6p-1; In the fusion, docking and FRET assays it was reconstituted into liposomes; also called purified PRRT2; recombinant PRRT2; source: E. coli Rosetta2(DE3), purified (glutathione agarose, cleaved off the resin with PreScission Protease)
B1: the “half-maximal inhibition of lipid mixing, from the dose-response curve of PRRT2/t-SNARE ratios” value in assay [1] is ~1 copy of PRRT2 for each t-SNARE. The Kd in assay [2] is ≥ 50 µM.
